Inhibition data for 91 compounds are collected here from PubChem BioAssay AID1778 (Sanford-Burnham Center for Chemical Genomics, 2009).

Chains of the proteins cited; added tags and fusions are not shown. Lines headed by an entry give the natural chain unless they say otherwise; changes in a name come on top.
UniProt P41145: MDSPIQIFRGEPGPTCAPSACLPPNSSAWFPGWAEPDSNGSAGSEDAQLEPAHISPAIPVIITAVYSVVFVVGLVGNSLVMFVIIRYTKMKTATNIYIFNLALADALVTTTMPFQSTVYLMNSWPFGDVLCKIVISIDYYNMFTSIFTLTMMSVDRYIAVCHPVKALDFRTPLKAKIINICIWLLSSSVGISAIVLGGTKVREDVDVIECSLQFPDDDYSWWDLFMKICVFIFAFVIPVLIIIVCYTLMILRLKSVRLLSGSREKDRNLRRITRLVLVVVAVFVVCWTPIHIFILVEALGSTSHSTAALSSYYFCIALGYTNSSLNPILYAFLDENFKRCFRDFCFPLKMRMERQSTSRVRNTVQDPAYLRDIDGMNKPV

The other results are listed elsewhere or left out. Measured potencies and affinities stand elsewhere. Calls of active or inactive are those of the source. Cut-off read from the data, not from the text of the source: active = inhibition above about 50%; inactive = the rest.

This assay has as its target Kappa-type opioid receptor (Homo sapiens) (UniProt P41145). The experiment in a line: KOR antagonists, beta-arrestin recruitment, cell-based, luminescence, uHTS (AID 1778). The note with it: antagonist mode, at 10 µM, active compounds read high. (In general: Recruitment of arrestin is a read-out of receptor activation apart from second messengers.)
On to `CCN(CC)c1ccc(NC(=O)Cn2c(C(C)NC(=O)c3ccc(C)cc3)nc3ccccc32)cc1` (stereo unspecified), for which the inhibition was inactive: 2.8%.
With `COc1cc(/C=N/NC(=O)Cn2cnc3c2c(=O)n(C)c(=O)n3C)cc(OC)c1OC`, the inhibition was inactive: 12.6%.
As to `CSCC[C@H](NC(=O)N1CCn2c1nc1ccccc12)C(=O)NC1CC1`, the inhibition was inactive: -34.3%.
In the case of `O=C(NC1CCCCC1)C(c1ccccc1)N(Cc1ccco1)C(=O)Cn1cnc2ccccc21` (stereo unspecified) it was inactive: -67.4%; in that of `CCOc1ccc(CNc2nc3ccccc3n2CCN2CCOCC2)cc1`, inactive: -28.6%.
As to `CCOc1ccc(NC(=S)N2CCn3c(nc4ccccc43)C2)cc1`, the inhibition is inactive: -15%.
The result for `CCN(CC)CCn1c(=N)n(CC(=O)c2ccc(Br)s2)c2ccccc21` reads inactive: -8.9%.
With `O=S(=O)(c1ccccc1)c1nnn2c1nc(NC1CCN(Cc3ccccc3)CC1)c1cc(Cl)ccc12`, the inhibition was inactive: -20.2%.
For `CCC(C)N(C(=O)Cn1c(Cl)nc2c1c(=O)n(C)c(=O)n2C)C1CCS(=O)(=O)C1` (stereo unspecified), the inhibition was inactive: -6%.
In the case of `Brc1cccc(CNc2nc3ccccc3n2CCN2CCCCC2)c1`, the inhibition was inactive: 11%.
With `COc1ccc(OC)c(CNc2nc3ccccc3n2CCN2CCCCC2)c1`, the inhibition is inactive: 13.9%.
For the compound `CCSc1nc2ccccc2n1CC(N)=O`, the inhibition was inactive: 12.9%.
`Cn1c(=O)c2c(nc(CN3CCN(Cc4ccccc4)CC3)n2CCN2CCOCC2)n(C)c1=O`: the inhibition was inactive: -44.9%.
As for `CC(NC(=O)Cn1c(NCCO)nc2ccccc21)c1ccccc1` (stereo unspecified), the inhibition is inactive: 44.2%.
As to `Cn1c(=O)[nH]c(=O)c2c1nc(N1CCCCCC1)n2CC(N)=O`, the inhibition is inactive: 0.7%.
With `Nc1nonc1-c1nc2ccccc2n1CC(=O)N/N=C/c1ccc(-c2ccccc2C(=O)O)o1`, the inhibition is inactive: -43.3%.
As for `COc1ccc(-c2nn(-c3ccccc3)cc2C(=O)N2c3ccc(C)cc3C3CN(C)CCC32)cc1` (stereo unspecified), the inhibition was inactive: -28.9%.
Turning to `Cn1c(=O)c2c(nc(CN3CCN(C(c4ccccc4)c4ccccc4)CC3)n2CC(N)=O)n(C)c1=O`, the inhibition was inactive: -20%.
For the compound `CCOC(=O)c1cccc(NC(=O)Cn2cnc3c2c(=O)n(C)c(=O)n3C)c1`, the inhibition was inactive: 23.7%.
In the case of `CC(=O)NC(C)c1nc2ccccc2n1CC(=O)NC(C)CCc1ccccc1` (stereo unspecified) it was inactive: 12.5%; in that of `CCc1cccc(C)c1NC(=O)CSc1nc2ccccc2n1CC(=O)N(C)C`, inactive: -24.8%.
In the case of `CCN1C(=O)CC(n2c(C)nc3ccccc32)C1=O` (stereo unspecified), the inhibition is inactive: 4.3%.
With `COc1ccc(N2CCn3c2nc2c3c(=O)n(CCc3ccccc3)c(=O)n2C)c(OC)c1`, the inhibition was inactive: 10.6%.
Take `O=C(Cn1cnc2ccccc21)N/N=C/c1ccco1`: the inhibition is inactive: -14%.
With `COc1ccc(CNc2nc3ccccc3n2CCN2CCCCC2)cc1`, the inhibition was inactive: -4.1%.
`COCCN1CCn2c(nc3cc(NS(C)(=O)=O)ccc32)C1`: the inhibition is inactive: 8.1%.
For `Cc1cccc(OCC(O)Cn2c(=N)n(CCN3CCCCC3)c3ccccc32)c1` (stereo unspecified), the inhibition was inactive: -16.7%.
In the case of `O=P1(Nc2nc3ccc(Cl)cc3s2)COc2ccccc2O1` (stereo unspecified), the inhibition was inactive: 4.1%.
`CCn1c(=O)c2c(nc3n2CCN3c2ccccc2)n(C)c1=O`: the inhibition was inactive: -25.9%.
The result for `CC1CN(C(=O)Cn2cnc3c2c(=O)n(C)c(=O)n3C)CC(C)O1` (stereo unspecified) reads inactive: 35.9%; that for `C[C@H](NC(=O)N1CCn2c1nc1ccccc12)C(=O)NCc1ccccc1`, inactive: -3.7%; that for `COc1cccc(CNC(=O)[C@H](CCSC)NC(=O)N2CCn3c2nc2ccccc23)c1`, inactive: -37.9%.
With `Cc1nc2ccccc2n1CC(=O)N1CC(=O)Nc2ccccc21`, the inhibition was inactive: -1.5%.
As for `COCCN1CCn2c(nc3cc(NC(C)=O)ccc32)C1`, the inhibition is inactive: 19.9%.
As for `COCCNC(=O)Cn1cnc2c1c(=O)n(C)c(=O)n2C`, the inhibition was inactive: -37.9%.
The result for `CCOc1ccc(C2=NCC(CBr)S2)cc1` (stereo unspecified) reads inactive: -30.1%; that for `CC(C)CCNC(=O)CC1C(=O)N(Cc2ccccc2)C(C)c2nc3ccccc3n21` (stereo unspecified), inactive: 0.5%.
The result for `CC(C)(C)NC(=O)Cn1c(SCC(N)=O)nc2ccccc21` reads inactive: -28.8%; that for `CCc1cccc(CC)c1N(COC)C(=O)Cn1cnc2ccccc21`, inactive: 23.4%; that for `Cc1ccc2c(c1)C1CN(C)CCC1N2C(=O)COc1ccc(N(C)C(=O)c2ccccc2)cc1` (stereo unspecified), inactive: 19.4%.
Consider `N=c1n(CCCOc2ccccc2Cl)c2ccccc2n1CC(N)=O`, for which the inhibition was inactive: 8.3%.
Consider `Cc1ccc(C)c(CSc2nc3ccncc3n2CC(=O)Nc2ccc(C)c(C)c2)c1`, for which the inhibition was inactive: -3.4%.
For the compound `N#Cc1cccc(NC(=O)Cn2c3[n+](c4ccc(C(F)(F)F)cc42)CCCCC3)c1`, the inhibition was inactive: -4.3%.
Take `CC(C)(C)C(=O)NC(Sc1ccccc1)C(Cl)(Cl)Cl` (stereo unspecified): the inhibition is inactive: -0.5%.
`O=C(Cn1c(CO)nc2ccccc21)Nc1ccccc1Cl`: the inhibition was inactive: -36.1%.
Regarding `CCc1nc2ccccc2n1CC(=O)N1CCN(Cc2ccccc2)CC1`, the inhibition is inactive: 22.2%.
`C[C@H](NC(=O)N1CCn2c1nc1ccccc12)C(=O)N1CCCCC1`: the inhibition was inactive: -55.8%.
In the case of `CCc1cccc(CC)c1N(COC)C(=O)Cn1c(CO)nc2ccccc21`, the inhibition is inactive: 13.5%.
On to `CSc1nc2ccccc2n1CC(=O)Nc1ccc(C)c(C)c1`, for which the inhibition was inactive: 34.8%.
As for `COc1ccc(/C=N/NC(=O)Cn2cnc3c2c(=O)n(C)c(=O)n3C)cc1`, the inhibition is inactive: 18.3%.
Consider `COC(=O)C1=C(Cn2cnc3ccccc32)NC(=O)NC1c1cc(C)ccc1C` (stereo unspecified), for which the inhibition was inactive: 5.8%.
For `c1ccc(CN2CCC(Nc3nc(-c4cccnc4)nc4ccccc34)CC2)cc1`, the inhibition is inactive: -25.1%.
`CCOC(=O)c1ccc(NC(=O)Cn2c(-c3nonc3N)nc3ccccc32)cc1`: the inhibition was inactive: -28.8%.
Consider `CSc1nc2ccccc2n1CC(=O)Nc1c(C)n(C)n(-c2ccccc2)c1=O`, for which the inhibition is inactive: 14.6%.
In the case of `CC(/C=C/c1ccccc1)=N/NC(=O)CCC(=O)Nc1ccccc1C`, the inhibition was inactive: -26.9%.
In the case of `COc1cccc(C(=O)CSc2nc3ccccc3n2CC(=O)N2CCOCC2)c1` it was inactive: -1.2%.
On to `O=C(Cn1c(-c2cncs2)nc2ccccc21)NCCc1ccccc1`, for which the inhibition was inactive: -27.2%.
The result for `Cc1ccc2c(c1)C1CN(C)CCC1N2C(=O)Nc1cccc(Cl)c1` (stereo unspecified) reads inactive: 17.1%; that for `CCOc1ccc(S(=O)(=O)N(C)c2ccc(OCC(=O)N3c4ccc(C)cc4C4CN(C)CCC43)cc2)cc1` (stereo unspecified), inactive: -30.7%; that for `CC(C)(C)NC(=O)Cn1c(SCC(=O)Nc2nccs2)nc2ccccc21`, inactive: 2.3%.
In the case of `C[C@@H]1C=CCP(=O)(Oc2ccccc2)O1` (stereo partly specified), the inhibition was inactive: 22.7%.
Regarding `O=C(CCNC(=O)N1CCn2c1nc1ccccc12)NCc1ccccc1Cl`, the inhibition is inactive: -94.1%.
On to `CN(C)CCn1c(N)nc2ccccc21`, for which the inhibition is inactive: -24.7%.
As for `CN(C)C(=O)CSc1nc2ccccc2n1CC(=O)N1CCN(c2ccccc2)CC1`, the inhibition is inactive: 18.8%.
For `C[C@H]1OP(=O)(Oc2ccccc2)C[C@@H]2O[C@@H]21` (stereo partly specified), the inhibition is inactive: 28.9%.
Take `CCC(=O)Nc1nc2ccccc2n1CCN(C)C`: the inhibition is inactive: 2.9%.
Turning to `Cc1ccc2c(c1)C1CN(C)CCC1N2Sc1ccccc1[N+](=O)[O-]` (stereo unspecified), the inhibition was inactive: -1.8%.
`O=C(Cn1c(SCC(=O)N2CCCc3ccccc32)nc2ccccc21)N1CCCC1`: the inhibition was inactive: 0.8%.
For `CC(=O)c1ccc(N2CC2c2ccncc2)cc1` (stereo unspecified), the inhibition is inactive: 32.6%.
On to `Cc1ccc2c(c1)C1CN(C)CCC1N2C(=O)COc1ccc(N(C)S(=O)(=O)c2cccs2)cc1` (stereo unspecified), for which the inhibition was inactive: 0.1%.
In the case of `COC(=O)c1ccccc1NC(=O)Cn1c(-c2nonc2N)nc2ccccc21`, the inhibition is inactive: -109%.
Regarding `O=C(Cn1cnc2ccccc21)N/N=C/C(Br)=C/c1ccccc1`, the inhibition is inactive: -26.9%.
Regarding `Cn1c(=O)c2c(ncn2CC(=O)N/N=C/C(Cl)=C/c2ccccc2)n(C)c1=O`, the inhibition is inactive: -4.8%.
Turning to `CC(NC(=O)CCCCCNC(=O)N1CCn2c1nc1ccccc12)c1ccccc1` (stereo unspecified), the inhibition was inactive: -18.4%.
In the case of `CCOC(=O)c1ccc(NC(=O)C2CC(=O)Nc3nc4ccccc4n32)cc1` (stereo unspecified), the inhibition was inactive: 3%.
Consider `CCC(C(=O)NC1CCCC1)n1c(SCc2cccc(C)c2)nc2ccncc21` (stereo unspecified), for which the inhibition is inactive: 8.7%.
Turning to `COc1ccc2c(c1)C1(Nc3ccccc3-c3nc4ccccc4n31)C(=O)N2` (stereo unspecified), the inhibition was inactive: -31.1%.
Turning to `CC(=O)Nc1ccc([As](=O)(O)O)c(O)c1`, the inhibition was inactive: -10.5%.
Turning to `O=S(=O)(c1ccc(F)cc1)N1CCn2c(nc3ccccc32)C1`, the inhibition is inactive: -3.4%.
For `CSCC[C@H](NC(=O)N1CCn2c1nc1ccccc12)C(=O)NC1CCCCC1`, the inhibition was inactive: -4.1%.
Regarding `CC1=NNC(=O)C1CCC(=O)N/N=C/C=C/c1ccccc1` (stereo unspecified), the inhibition was inactive: 18%.
As for `O=C(CCNC(=O)N1CCn2c1nc1ccccc12)NCc1ccc(Cl)cc1`, the inhibition is inactive: -31.6%.
On to `Cc1cc(NC(=O)CSc2nc3ccccc3n2CC(=O)N2CCC(C)CC2)no1`, for which the inhibition is inactive: -19.4%.
In the case of `Cc1nc2cc(C(F)(F)F)ccc2n1C1CCN(Cc2nnnn2CCc2ccccc2)CC1` it was inactive: -6.5%; in that of `CC(=O)Nc1ccc(Oc2c([N+](=O)[O-])cc([N+](=O)[O-])cc2[N+](=O)[O-])cc1`, inactive: 25.7%; in that of `CN1C(=O)CC(n2c(CO)nc3ccccc32)C1=O` (stereo unspecified), inactive: 8.2%.
`COc1ccccc1OCC(O)Cn1c(=N)n(CCN2CCCCC2)c2ccccc21` (stereo unspecified): the inhibition is inactive: -64.4%.
Take `CC(C)C[C@H](NC(=O)N1CCn2c1nc1ccccc12)C(=O)NCc1ccccc1`: the inhibition was inactive: -10.4%.
In the case of `Fc1ccc2c(c1)nnn2C1CCN(Cc2nnnn2CCc2ccccc2)CC1`, the inhibition is inactive: 0.5%.
On to `O=C(Cn1cnc2ccccc21)Nc1ccc(C(=O)O)cc1`, for which the inhibition is inactive: -27.1%.
For `O=C(C1COc2ccccc2O1)N1CCn2c(nc3ccccc32)C1` (stereo unspecified), the inhibition was inactive: -1%.

Broadly, the inhibition is the relative decrease from the control value, in per cent.
